Experiments:
[1] = biological target: T1, Recombinant human bone morphogenetic protein-1 (BMP-1) with a C-terminal FLAG tag (human, UniProt P13497-2 121-730); assay: SPR; BIAcore 3000, 25 °C; BMP-1, mTLL-1 or MASP-2 immobilised by amine coupling on CM5; C1q or MBL injected (60 µl, 20 µl/min) at several concentrations in 50 mM triethanolamine-HCl, 145 mM NaCl, 2 mM CaCl2, 0.005% surfactant P20, pH 7.4; global fit to a 1:1 Langmuir model; apparent KD from kd/ka; settings: both partners purified
T1 construct: BMP-1, human; the shorter splice product of the gene that also gives mTLD (identical to mTLD up to the end of the CUB3 domain); source: HEK 293-EBNA cells, purified
T1 sequence (looked up): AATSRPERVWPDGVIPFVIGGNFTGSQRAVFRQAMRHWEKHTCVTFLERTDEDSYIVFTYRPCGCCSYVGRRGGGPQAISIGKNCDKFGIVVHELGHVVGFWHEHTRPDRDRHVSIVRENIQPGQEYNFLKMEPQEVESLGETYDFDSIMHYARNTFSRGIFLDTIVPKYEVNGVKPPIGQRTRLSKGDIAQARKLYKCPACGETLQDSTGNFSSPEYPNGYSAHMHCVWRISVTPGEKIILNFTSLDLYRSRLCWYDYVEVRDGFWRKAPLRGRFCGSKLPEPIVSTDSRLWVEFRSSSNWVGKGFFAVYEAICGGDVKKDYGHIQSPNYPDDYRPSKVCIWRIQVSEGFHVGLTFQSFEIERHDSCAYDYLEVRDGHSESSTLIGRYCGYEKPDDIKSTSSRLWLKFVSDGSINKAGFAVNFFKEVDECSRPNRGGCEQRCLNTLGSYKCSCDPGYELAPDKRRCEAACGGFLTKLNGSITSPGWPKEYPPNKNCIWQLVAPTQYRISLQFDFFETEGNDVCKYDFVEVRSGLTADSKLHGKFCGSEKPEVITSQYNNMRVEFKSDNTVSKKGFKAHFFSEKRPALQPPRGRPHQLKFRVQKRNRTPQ

[2] = biological target: T2, Recombinant human mammalian tolloid-like-1 (mTLL-1) with a C-terminal 6x-His tag (human, UniProt O43897 148-1013); assay: as above; settings: both partners purified
T2 construct: mammalian tolloid-like-1 (mTLL-1), human; also called mTTL-1; source: HEK 293-EBNA cells, purified
T2 sequence (looked up): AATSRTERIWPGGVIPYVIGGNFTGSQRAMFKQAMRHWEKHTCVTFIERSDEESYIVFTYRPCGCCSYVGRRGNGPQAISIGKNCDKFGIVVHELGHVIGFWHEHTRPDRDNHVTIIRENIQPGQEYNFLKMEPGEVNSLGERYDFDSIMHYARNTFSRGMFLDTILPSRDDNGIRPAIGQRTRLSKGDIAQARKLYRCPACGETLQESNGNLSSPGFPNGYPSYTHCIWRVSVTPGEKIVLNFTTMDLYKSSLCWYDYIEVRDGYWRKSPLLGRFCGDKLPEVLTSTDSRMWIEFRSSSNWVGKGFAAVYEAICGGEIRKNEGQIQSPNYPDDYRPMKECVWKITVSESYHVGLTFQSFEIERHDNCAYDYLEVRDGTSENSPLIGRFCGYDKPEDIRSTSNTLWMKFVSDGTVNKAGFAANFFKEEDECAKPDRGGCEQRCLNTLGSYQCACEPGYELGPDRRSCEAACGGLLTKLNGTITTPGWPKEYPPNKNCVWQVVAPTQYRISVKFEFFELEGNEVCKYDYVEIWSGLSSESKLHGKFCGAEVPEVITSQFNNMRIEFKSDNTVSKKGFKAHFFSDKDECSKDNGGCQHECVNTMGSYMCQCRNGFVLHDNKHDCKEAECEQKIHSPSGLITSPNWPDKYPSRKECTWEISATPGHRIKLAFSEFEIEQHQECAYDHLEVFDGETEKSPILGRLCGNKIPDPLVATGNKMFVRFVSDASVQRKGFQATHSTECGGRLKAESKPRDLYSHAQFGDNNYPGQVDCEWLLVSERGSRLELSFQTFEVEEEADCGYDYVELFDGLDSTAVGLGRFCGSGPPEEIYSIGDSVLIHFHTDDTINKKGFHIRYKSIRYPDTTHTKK

B1: Recombinant human mannose-binding lectin (MBL) (natural protein, UniProt P11226 21-248, looked up)
chain: ETVTCEDAQKTCPAVIACSSPGINGFPGKDGRDGTKGEKGEPGQGLRGLQGPPGKLGPPGNPGPSGSPGPKGQKGDPGKSPDGDSSLAASERKALQTEMARIKKWLTFSLGKQVGNKFFLTNGEIMTFEKVKALCVKFQASVATPRNAAENGAIQNLIKEEAFLGITDEKTEGQFVDLTGNRLTYTNWNEGEPNNAGSDEDCVLLLKNGQWNDVPCSTSHLAVCEFPI
notes: Mixture of oligomers; also called wild-type (wt) MBL; source: Freestyle 293-F cells, purified (N-acetylglucosamine-agarose)
Kd [1]: 1.3 nM
koff [1]: 0.00087 s⁻¹
kon [1]: 740000 M⁻¹ s⁻¹
Kd [2]: 0.58 nM
koff [2]: 0.00082 s⁻¹
kon [2]: 1.4e+06 M⁻¹ s⁻¹

Source: paper PMC5717261 (Scientific Reports, 2017)
